Literature values, collected in patent US9566341B1, “Compounds including Cox inhibitor moiety and enhanced delivery of active drugs using same” (University of Kentucky Research Foundation, priority 2011, dated 2017).

Conditions: different animal models; cited from earlier work

Oc1ccc2c3c1O[C@H]1[C@H](O)CC[C@@]4(O)[C@@H](C2)N(CC2CC2)CC[C@]314 [NTXOL, 6-β-Naltrexol, reference compound]
duration of action relative to NTX: 4-9 times
